High-throughput results deposited in PubChem BioAssay by National Center for Advancing Translational Sciences (NCATS).
Only some compounds are listed: those with a hit (about 13% of all), similar ones and a draw of the others.
Sfp inh – Sfp phosphopantetheinyl transferase inhibition; Q9F4F7; Biochemical Sfp PPTase activity, qHTS; Potency, µM, for the others: max response, negative = inhibition, most hits filed as inhibitors; 310,000 tested, 3.5% active; AID 1490; active = well fitted inhibition curve with a large enough effect; inconclusive = small, poorly fitted or top-dose-only effect, or another doubt; inactive = no such curve, though single readings can be large or run the other way;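 also: the enzyme is Sfp with the accession as filed and its product quenches rhodamine fluorescence; potency is read from the fitted curve at half-maximal effect; 0% = enzyme reaction without inhibitor and -100% = no enzyme wells; top concentration of the series not given in the record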
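After 15 min at room temperature with compound, 15 nM Sfp received 5 uM rhodamine-CoA plus 12.5 uM BHQ-2-ybbR (50 mM Hepes pH 7.6, 10 mM MgCl2). Rate came from the fluorescence difference over 30 min, ex 525/em 598 nm.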
miR-21 reporter – raises the signal of a miR-21 reporter | HeLa miR-21 FLuc reporter, luciferase, 48 h | Potency, µM (doses to about 38.3 µM), for the others: at the highest dose reporter change, positive = more light | 340,000 tested, under 10 active | AID 2288; active = well fitted rising curve with a large enough effect; inconclusive = small, poorly fitted or top-dose-only effect; inactive = no such curve, though single readings can be large or run the other way;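 also: % of control where 0% means no effect; miR-21 action dims this reporter so a rising signal means less miR-21 action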
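HeLa cells stably expressing CMV-driven firefly luciferase with a downstream miR-21 binding sequence, endogenously expressing miR-21, were treated with titrations (up to about 40uM final) for 48 hours at 37 degree Celsius. Luciferase luminescence was read after lysis.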
KDM4E inh – JMJD2E (human) inhibition; JMJD2E catalytic domain, FDH-coupled NADH fluorescence (FDH is formaldehyde dehydrogenase); Potency, µM (series often up to 57.1 µM), for inactives: at the top dose activity change, negative = inhibition, most hits filed as inhibitors; 230,000 tested, 1.6% active; AID 2147; active = well fitted inhibition curve with a large enough effect, not every such curve was filed as active; inconclusive = small, poorly fitted or top-dose-only effect, or another doubt; inactive = no such curve, though single readings can be large or run the other way;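 note: potency is the fitted concentration of half-maximal effect; 0% = wells with enzyme and -100% = buffer wells without enzyme; nearly all actives have a fitted effect of over 50% in size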
Lamin A splicing – LMNA splicing modulation | 200,000 tested, 0.01% active | Potency, µM (doses to about 46.1 µM), for inactives: at the highest dose ratio change, negative = inhibition, usual class: inhibitors | HeLa LMNA splicing GFP/RFP minigene ratio, 48 h; active = well fitted inhibition curve with a large enough effect in the signal ratio, with a control signal flat, not every such curve was filed as active; inconclusive = small, poorly fitted or top-dose-only effect, or effect the other way, or a change in a side signal; the % refers to the signal ratio; note: potency is the fitted concentration of half-maximal effect; % is set by controls: 0 for no effect and ±100 for the full control effect
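Read-out is the ratio of GFP to DsRed2 object intensity, acquired by 488 nm laser-scanning cytometry on HeLa lamin A-EGFP minigene reporter cells. Compound incubation 48 hrs at 37 °C in Opti-MEM with 2% FBS; DMSO 0.5% final.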
ALDH1A1 inh – inhibitors of human aldehyde dehydrogenase 1A1; P00352; Purified ALDH1A1, NADH fluorescence, propionaldehyde substrate; Potency, µM (doses to about 75.3 µM), for the others: at the top dose activity, negative = inhibition, actives largely listed as inhibitors; 220,000 tested, 7.3% active; active = well fitted inhibition curve with a large enough effect, not every such curve was filed as active; inconclusive = small, poorly fitted or top-dose-only effect, or another doubt; inactive = no such curve, though single readings can be large or run the other way;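 note: potency is the fitted concentration of half-maximal effect; plate controls were no enzyme wells and a reference inhibitor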
G9a block – blocks human histone lysine methyltransferase G9a. Potency, µM (doses to about 102 µM), for inactives: at the top dose activity, negative = inhibition, actives largely listed as inhibitors. Q96KQ7. 350,000 tested, 8.8% active. G9a H3K9 monomethylation, AlphaScreen, 2 h. AID 504332; note: potency is the fitted concentration of half-maximal effect; % is set by controls: 0 for no effect and ±100 for the full control effect; nearly all actives have a fitted effect of over 75% in size
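Quantitative HTS format: methyltransferase activity on a biotin-tagged H3K9 peptide is measured by AlphaScreen, using a rabbit anti-monomethyl-H3K9 antibody with streptavidin donor and anti-IgG acceptor beads. Final levels are 20 nM enzyme, 500 nM peptide, 20 uM SAM; 2 h RT.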
Starred values were filed as active, the others as inactive; ? = inconclusive; . = not tested or not shown; [ ] = dose if it differs, or a comment. Unless noted, calls come from the whole dose curve; as a rule, active = well fitted curve in the direction sought with a large enough effect; inconclusive = small, poorly fitted or top-dose-only effect, or another doubt; inactive = no such curve, though single readings can be large; an effect the other way counts as inactive or inconclusive.

| cpd | SMILES | Sfp inh | miR-21 reporter | KDM4E inh |
| --- | --- | --- | --- | --- |
| 1 | CC1=CC2(O)OCCN(CCO)C2=CC1=O (stereo unspecified) | 56.2µM* | 1.9% | 25.1µM* |
| 2 | CN1CCN(CCCNCc2cn(CCC#N)c3ccccc23)CC1 | 56.2µM* | -2.9% | . |
| 3 | C/C(=N\NC(=O)c1ccc(N(C)C)cc1)c1ccc(C)cc1C | -5.3% | -37.3% | -6.1% |
| 4 | C/C(=N\NC(=O)c1ccc(N(C)C)cc1)c1cccnc1 | -9.5% | -24.7% | . |
| 5 | CCN(CC)c1ccc(/C=N/NC(=O)c2ccc(O)cc2)cc1 | -4.2% | . | ? |
| 6 | C/C(=N\NC(=O)c1ccc(O)cc1)c1ccc2c(c1)Nc1ccccc1S2 | -2.4% | -20.3% | 1.2% |
| 7 | C/C(=N\NC(=O)c1ccc(N(C)C)cc1)c1ccc(C)c(C)c1 | 14.4% | -30.3% | 25.6% |
| 8 | CCN(CC)c1ccc(C(=O)N/N=C(\C)c2cccnc2)cc1 | -1.1% | 4.1% | -8.6% |
| 9 | C/C(=N\NC(=O)c1ccccc1F)c1ccc2c(c1)Nc1ccccc1S2 | -15.2% | -44.4% | -4.6% |
| 10 | CCN(CC)c1ccc(C(=O)N/N=C(\C)c2ccc(O)cc2)cc1 | -5.9% | 14.6% | -13.6% |
| 11 | C/C(=N\NC(=O)Cc1ccccc1)c1cccnc1 | 4.7% | -17.4% | . |
| 12 | CCCCCCCCC(=O)N/N=C(\C)c1cccnc1 | 7.3% | 0.3% | -6.1% |
| 13 | COc1ccc(S(=O)(=O)N[C@H](C(=O)N2CC[C@@]3(O)CCCC[C@H]3C2)c2ccccc2)cc1 | 11.8% | -0.9% | -0.1% |
| 14 | O=C(CCOc1ccccc1)N(Cc1cccnc1)c1nc2c(F)cc(F)cc2s1 | . | -8.3% | . |
| 15 | O=C(COC(=O)CNC(=O)c1ccccc1F)Nc1nnc(-c2ccccc2)o1 | . | . | . |

| cpd | Lamin A splicing | ALDH1A1 inh | G9a block |
| --- | --- | --- | --- |
| 1 | ? | -2.8% | ? |
| 2 | . | . | 50.1µM* |
| 3 | ? | -12.4% | ? |
| 4 | . | . | 25.1µM* |
| 5 | . | ? | . |
| 6 | ? | -5.3% | 15.8µM* |
| 7 | -12.0% | 14.1µM* | 44.7µM* |
| 8 | -21.3%[46 µM] | ? | 4.2% |
| 9 | -4.0% | 0.0% | ? |
| 10 | ? | 25.1µM* | -8.6%[59 µM] |
| 11 | . | . | 0.9%[0.501 µM] |
| 12 | -6.7% | ? | 10µM* |
| 13 | -3.0% | 12.6µM* | 6.1% |
| 14 | ? | . | -21.1%[59 µM] |
| 15 | . | . | 56.2µM* |

(list continues)
| cpd | SMILES | Sfp inh | miR-21 reporter | KDM4E inh |
| --- | --- | --- | --- | --- |
| 16 | COc1cc(OC)c(C(=O)COc2ncnc3ccccc23)c(OC)c1 | 25.5% | -1.1% | 0.2% |
| 17 | COc1ccc(NC(=O)COC(=O)CCc2ccccc2)c(OC)c1 | 10.3% | 4.1% | . |
| 18 | CC1CC(C)CN(CCCNS(=O)(=O)c2ccc3c(c2)oc(=O)n3C)C1 (stereo unspecified) | 9.2% | -16.0% | . |
| 19 | C/C(=N\Nc1ncc(Cl)cc1Cl)c1ccc(C#N)cc1 | 10.7% | -28.0% | ? |
| 20 | CCN(CC)C(=O)COc1ccc(/C(C)=N/Nc2ncc(Cl)cc2Cl)cc1 | 79.4µM* | -45.0% | -4.0% |
| 21 | CN(C(=O)COC(=O)c1cc2c(s1)CCCCC2)C1CCS(=O)(=O)C1 (stereo unspecified) | 8.8% | -8.1% | . |
| 22 | COC(=O)C1=NN(c2ccc(C)cc2)C2(S1)SC(C(C)=O)=C(C)N2c1ccccc1 (stereo unspecified) | -4.2% | 2.9% | 4.5% |
| 23 | COc1cccc(NC(=O)c2nn(-c3ccc(C)cc3)c(=O)n(C)c2=O)c1 | . | -10.2% | . |
| 24 | O=C(CC1N=C2c3ccccc3N=C(SCc3ccc(Cl)cc3)N2C1=O)NCc1ccco1 (stereo unspecified) | ? | -12.1% | ? |
| 25 | CN(C)c1ccc(NC(=O)CSC2=Nc3ccccc3C3=NC(CC(=O)NCc4ccccc4)C(=O)N23)cc1 (stereo unspecified) | . | -32.7% | . |
| 26 | COc1ccc(NC(=O)N2CC3(CCN(C(=O)c4c(C)noc4C)CC3)C2)cc1 | 10.2% | . | . |
| 27 | Cc1ccccc1-n1c(N)c(C(=O)Nc2ccc(F)cc2)sc1=S | ? | -14.6% | 7.0% |
| 28 | Cc1ccc(NC(=O)c2sc(=S)n(-c3cc(C)ccc3F)c2N)cc1 | 50.1µM* | -10.7% | -12.9% |
| 29 | Cc1ccc(-n2c(N)c(C(=O)Nc3ccccc3F)sc2=S)cc1C | -27.3% | -20.3% | -5.0% |
| 30 | Cc1cc(C)c2c(N)c(C(=O)Nc3ccc(F)cc3)sc2n1 | -1.7% | -45.0% | . |

| cpd | Lamin A splicing | ALDH1A1 inh | G9a block |
| --- | --- | --- | --- |
| 16 | -5.2% | 15.8µM* | 14.9% |
| 17 | . | . | 27.7% |
| 18 | . | . | 10.3% |
| 19 | 4.3%[46 µM] | 8.6% | -29.0% |
| 20 | . | 10.7% | . |
| 21 | . | . | 38.5% |
| 22 | -9.5% | -6.6% | 11.2µM* |
| 23 | 4.0%[46 µM] | . | -0.8%[59 µM] |
| 24 | 9.4% | ? | 50.1µM* |
| 25 | 3.4%[46 µM] | . | 1.58µM* |
| 26 | . | ? | -3.4%[12.7 µM] |
| 27 | . | 20µM* | 11.2µM* |
| 28 | . | 12.6µM* | 8.91µM* |
| 29 | . | 10µM* | 22.4µM* |
| 30 | . | . | ? |

(next part)
| cpd | SMILES | Sfp inh | miR-21 reporter | KDM4E inh |
| --- | --- | --- | --- | --- |
| 31 | CCN(CC)c1ccc(/C=C2\C(=O)c3ccc(C(=O)O)cc3C2=O)cc1 | -19.6% | -4.9% | -3.0% |
| 32 | C=CCNC(=S)Nc1cc(C)ccn1 | -19.2% | -1.6% | 2.1% |
| 33 | CCC1(c2ccc(F)cc2)NC(=O)N(CC(=O)N(CCC#N)c2ccccc2)C1=O (stereo unspecified) | -0.4% | 1.6% | . |
| 34 | N#CCCN(C(=O)CN1C(=O)NC2(CCCC2)C1=O)c1ccccc1F | 13.3% | 1.0% | 3.4% |
| 35 | Cc1ccc(NC(=O)CSc2nnc(-c3cccnc3)s2)cc1 | -4.3% | -3.9% | -0.5% |
| 36 | CC(=O)Nc1ccc(NC(=O)Cc2sc(-c3cccnc3)nc2-c2ccc(C)cc2)cc1 | 10.1% | -5.3% | 14.7% |
| 37 | CCc1ccc(-c2nc3c(c(SCc4ccc(F)cc4)n2)Cc2c(CO)cnc(C)c2O3)cc1 | . | -1.6% | . |
| 38 | COc1ccc2c(C)c(CCC(=O)NCCCN3CCCC3=O)c(=O)oc2c1C | 12.8% | -2.5% | . |
| 39 | Cc1ccccc1NC(=O)Cn1nc(-c2ccccc2)nc(Cc2ccccc2)c1=O | . | 5.2% | . |
| 40 | O=c1nc(Nc2cccc(Cl)c2)oc2cc(Cl)oc(=O)c12 | -3.0% | -1.1% | 36.8% |
| 41 | O=c1nc(Nc2ccccc2)oc2ccccc12 | 21.4% | -54.9% | -11.1% |
| 42 | Cc1ccccc1OCc1nnc(SCc2cc(=O)c3ccc(C)c(C)c3[nH]2)n1C | . | -4.7% | . |
| 43 | CC1(C)C(=O)N(c2ccccc2Cl)C(=O)c2ccccc21 | 2.3% | -0.3% | . |
| 44 | COc1ccc2c(c1)C(=O)N(c1ccccc1OC)C(=O)C2(C)C | -3.4% | -30.6% | 3.0% |
| 45 | COc1ccc(-c2nc3cnc(OC)nc3n(Cc3cccs3)c2=O)cc1 | -11.4% | . | . |
| 46 | CC(C)NC(=O)C1CCN(C(=O)N2CC(C)Oc3ccccc32)CC1 (stereo unspecified) | . | -36.0% | . |
| 47 | COCC1CCN(C(=O)CCc2nnc(C3(c4ccc(Cl)cc4)CCC3)o2)CC1 | 2.4% | -18.6% | . |
| 48 | CCOC(=O)c1ccc(CC(=O)c2ccc(O)cc2O)o1 | 1.0% | 17.5% | -20.1% |

| cpd | Lamin A splicing | ALDH1A1 inh | G9a block |
| --- | --- | --- | --- |
| 31 | -5.0% | 3.16µM* | 11.2µM* |
| 32 | ? | ? | 1.58µM* |
| 33 | . | . | -11.1% |
| 34 | 10.3% | 7.94µM* | -23.0% |
| 35 | -9.7% | ? | 79.4µM* |
| 36 | -13.6%[46 µM] | 4.1% | 44.7µM* |
| 37 | . | . | -29.6%[59 µM] |
| 38 | . | . | -8.6% |
| 39 | 15.8%[46 µM] | . | 4.5%[59 µM] |
| 40 | ? | ? | 50.1µM* |
| 41 | . | . | -0.2% |
| 42 | -8.2%[46 µM] | . | 13.1%[59 µM] |
| 43 | . | . | 79.4µM* |
| 44 | -0.9% | 0.4% | 4.5%[59 µM] |
| 45 | . | ? | 11.3%[12.7 µM] |
| 46 | 13.2%[46 µM] | . | 0.3%[59 µM] |
| 47 | . | . | . |
| 48 | ? | ? | 22.4µM* |

Record cards, as listed above. Screens in order: Sfp inh, miR-21 reporter, KDM4E inh, Lamin A splicing, ALDH1A1 inh, G9a block
Entry for `O=c1nc(Nc2ccccc2)oc2ccccc12` = 21.4%, -54.9%, -11.1%, ., ., -0.2%
Entry for `COc1ccc2c(c1)C(=O)N(c1ccccc1OC)C(=O)C2(C)C` = -3.4%, -30.6%, 3.0%, -0.9%, 0.4%, 4.5%[59 µM]
